Data reported in patent US10259815B2, “Gabaergic ligands and their uses” (UWM Research Foundation, Inc., priority 2015, dated 2019).
pEC50: −log10 of the molar value.

By UniProt entry, the sequences of proteins in these tests, tags left out. Residues count along the entry.
UniProt P18507, 40-475 limits assumed: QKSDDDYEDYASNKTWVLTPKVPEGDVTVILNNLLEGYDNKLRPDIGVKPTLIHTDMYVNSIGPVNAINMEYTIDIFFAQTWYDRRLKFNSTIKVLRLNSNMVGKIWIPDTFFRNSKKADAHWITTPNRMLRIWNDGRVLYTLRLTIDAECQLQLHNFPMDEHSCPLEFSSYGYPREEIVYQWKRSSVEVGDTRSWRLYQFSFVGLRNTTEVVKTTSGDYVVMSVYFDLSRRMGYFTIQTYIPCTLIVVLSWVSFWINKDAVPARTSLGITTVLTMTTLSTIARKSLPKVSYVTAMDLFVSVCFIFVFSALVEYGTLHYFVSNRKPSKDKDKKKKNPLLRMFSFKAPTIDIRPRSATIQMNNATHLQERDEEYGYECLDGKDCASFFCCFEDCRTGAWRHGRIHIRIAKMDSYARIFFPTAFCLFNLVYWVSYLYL
UniProt P34903, 29-492 limits assumed: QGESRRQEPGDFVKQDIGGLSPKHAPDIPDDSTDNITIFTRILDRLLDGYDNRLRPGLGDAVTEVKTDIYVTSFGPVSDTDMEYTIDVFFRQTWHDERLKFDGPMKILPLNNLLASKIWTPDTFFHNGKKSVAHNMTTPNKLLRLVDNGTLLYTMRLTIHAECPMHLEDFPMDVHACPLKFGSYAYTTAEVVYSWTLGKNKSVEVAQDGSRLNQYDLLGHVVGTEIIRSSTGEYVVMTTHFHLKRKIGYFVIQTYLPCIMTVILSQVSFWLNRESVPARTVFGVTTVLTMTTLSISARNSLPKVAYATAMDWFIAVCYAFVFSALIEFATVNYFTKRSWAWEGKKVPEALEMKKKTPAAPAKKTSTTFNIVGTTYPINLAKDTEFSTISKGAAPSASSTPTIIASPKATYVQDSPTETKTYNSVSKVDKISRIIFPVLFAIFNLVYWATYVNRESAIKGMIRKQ
UniProt P28472, 26-473 partner limits assumed: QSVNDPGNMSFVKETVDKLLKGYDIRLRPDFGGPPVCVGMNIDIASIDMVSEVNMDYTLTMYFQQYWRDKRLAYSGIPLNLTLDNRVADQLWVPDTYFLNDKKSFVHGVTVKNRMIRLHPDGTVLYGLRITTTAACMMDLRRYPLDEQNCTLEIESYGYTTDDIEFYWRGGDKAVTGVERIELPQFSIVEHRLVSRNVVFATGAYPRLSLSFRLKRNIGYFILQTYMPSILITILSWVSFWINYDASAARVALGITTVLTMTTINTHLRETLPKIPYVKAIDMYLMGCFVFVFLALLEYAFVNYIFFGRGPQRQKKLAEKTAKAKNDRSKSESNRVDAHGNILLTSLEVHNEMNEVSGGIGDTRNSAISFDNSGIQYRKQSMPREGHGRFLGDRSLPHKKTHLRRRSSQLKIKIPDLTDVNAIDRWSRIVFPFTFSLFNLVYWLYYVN

Legend:
[1] = Liver microsomal stability, human; details: 37° C., 4 μM compound, 30 minutes
[2] = Liver microsomal stability, dog; details: 37° C., 4 μM compound, 30 minutes
[3] = Liver microsomal stability, mouse; details: 37° C., 4 μM compound, 30 minutes
[4] = Liver microsomal stability, rat; details: 37° C., 4 μM compound, 30 minutes
[5] = Pharmacokinetics and brain concentration after 10 mg/kg P.O. dose, rats; details: 10 mg/kg oral dose
[6] = test system: Male NIH Swiss mice; assay: Marble burying assay (anxiolytic); assay type: in vivo
Method: FIG. 9 are graphs showing the number of marbles buried for each dose of compound in the marble burying assay for A) HZ-166 and KRM-II-81; B) MP-III-085, KRM-II-82 and KRM-II-18B; C) MP-III-080 and KRM-III-78; D) KRM-III-59; E) KRM-III-66 and KRM-III-65; F) KRM-III-79 and KRM-III-67. Male NIH Swiss mice (n=10) were dosed i.p. with vehicle (1% carboxymethyl cellulose) or one of the test compounds (10 or 30 mg/kg) 30 minutes prior to being tested in the marble burying assay.
The marble burying assay is designed to measure the anxiolytic-effect of a compound. When mice are nervous, they will bury marbles. As there becomes a decrease in amount of marbles buried, the better anxiolytic effect of a compound. Herein, KRM-II-81 is shown to be a better anxiolytic than HZ-166, which is a published anxiolytic (Fischer et al. Neuropharmacology, 2010, 59, 612).
The marble burying assay is used to determine the anxiolytic activity of a given compound. Mice are placed in a tub containing 20 marbles placed over a bed of sawdust. Defensive burying (Broekkamp 1986) is the natural reaction for the mice. […]
Experiments were carried out by the methods described in Li et al. (Life Sciences 2006, 78, 1933-1939). […] The number of marbles buried (⅔ covered with sawdust) was counted and submitted to inter-observer reliability assessment.

[7] = target: α3, β3, γ2 GABA A receptor (Homo sapiens, UniProt P18507+P34903); assay: FLIPR functional assay, α3 GABAA receptor subtype in HEK-293 cells; assay type: cell-based; details: read-out: α3 Binding EC50; FLIPR membrane potential, potentiation of GABA EC20

## C#Cc1ccc2c(c1)C(c1ccccn1)=NCc1c(-c3nc(CC)no3)ncn1-2
[1]
  Human Liver microsome stability (reported in % remaining): 91 % remaining
[2]
  Dog Liver microsome stability (reported in % remaining): 97 % remaining
[3]
  Mouse Liver microsome stability (reported in % remaining): 92 % remaining
[4]
  Rat Liver microsome stability (reported in % remaining): 94 % remaining
[5]; brain
  free fraction: 11%
[5]; one hour after dose, rats stated for KRM-II-81
  brain unbound concentration ([brain]u): 340 ng/g
[6]; 10 mg/kg i.p.
  marbles buried at 10 mg/kg: show a reduction
[6]; 10 and 30 mg/kg i.p.
  sedation observed in marble burying assay: sedation was also observed

## C#Cc1ccc2c(c1)C(c1ccccn1)=NCc1c(-c3nc(C)no3)ncn1-2
[1]
  Human Liver microsome stability (reported in % remaining): 81 % remaining
[2]
  Dog Liver microsome stability (reported in % remaining): 93 % remaining
[3]
  Mouse Liver microsome stability (reported in % remaining): 85 % remaining
[4]
  Rat Liver microsome stability (reported in % remaining): 93 % remaining

## Brc1ccc2c(c1)C(c1ccccc1)=NCc1c(-c3cnco3)ncn1-2
[7]
  pEC50: 6.94
[1]
  Human Liver microsome stability (reported in % remaining): 78 % remaining
[2]
  Dog Liver microsome stability (reported in % remaining): 89 % remaining
[3]
  Mouse Liver microsome stability (reported in % remaining): 70 % remaining
[4]
  Rat Liver microsome stability (reported in % remaining): 77 % remaining
